Test system: TRAMP-C2
Experiment: Adoptive transfer of TRAMP-specific T cells into mice bearing TRAMP-C2
Type: in vivo, C57BL6 mice
Details: during the two weeks of treatment; IL-2 daily day 0 to day 14
Procedure: On day 0, C57BL6 mice were injected subcutaneously with 4×10^6 TRAMP-C2 CD8^+ T cells. On day 0 and 14 the mice received 2×10^6 TRAMP-specific T cells in PBS or PBS alone intravenously. In order to provide a source of T cell help to the TRAMP-specific CD8^+ T cells the mice were injected daily from day 0 to day 14 with 10000 U of recombinant human IL-2 in PBS subcutaneously.

IL-2: recombinant human IL-2
mice remaining tumor free: 60%
